Assay outcomes as filed in PubChem.
An excerpt weighted towards active compounds, which were near 1% of everything screened.
C2C12 statin = suppressors of statin myotoxicity in C2C12 myotubes, primary screen, cell-based, single point, plate reader; C2C12 myotubes + simvastatin, ATP luminescence, 48 h; scaled: DMSO 0, geranylgeraniol control 100; rescue of ATP level, % at 7.49 µM; actives 0.78% (n = 330,000); AID 602340, 2012;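 active = mean ATP rescue above about 67%, or every replicate alone reaching that limit, limit read from the data, passing the limit was not always enough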;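 note: myotubes were challenged with 10 µM simvastatin during compound exposure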
Yeast UUG start-1 = modulators of yeast start codon fidelity, primary screen, whole organism, S. cerevisiae, single point, plate reader | AID 602363, 2012 | actives 0.13% (n = 350,000) | activity score, % at 18.7 µM | S. cerevisiae UUG-firefly luciferase reporter, luminescence/redox ratio;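 active means replicate mean at a twofold rise or more, about +100% in these data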;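 further: firefly luciferase made from a UUG start codon reports start codon fidelity; reporter light over untreated wells divided by growth signal over untreated wells; some hits fall short of that in this replicate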
Rtt109 Vps75 = inhibitors of C. albicans Rtt109/Vps75 HAT, primary screen, biochemical, ThioGlo CoA-SH fluorescence, plate reader. Histone acetyltransferase RTT109 (Candida albicans (strain SC5314 / ATCC MYA-2876)), …. purified Rtt109/Vps75, 4 h. inhibition, % at 34.9 µM. actives 0.16% (n = 330,000);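 active = inhibition of at least 50% in every replicate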
CDK5 p35 inh = inhibitors of human CDK5/p35 kinase, primary screen, biochemical, single concentration. Recombinant CDK5/p35, ADP-Glo luminescence, 60 min. inhibition, % at 10 µM. actives 0.01% (n = 330,000). AID 488839, 2010;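 active = highest replicate inhibition of at least 50% and at least 75% of replicates reaching 50%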;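 note: plate controls were DMSO neutral control for no effect and GW8510 at 10 µM for full effect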
Cneo AK release = Cryptococcus neoformans cell lysis inducers, primary screen, AK release luminescence, single concentration. C. neoformans lysis, adenylate kinase release luminescence, 4 h; normalised: neutral wells 0, clomiphene wells 100. lysis activity, % at 15 µM. actives 0.2% (n = 360,000);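 active = mean lysis activity across replicates of at least 80%, whatever share of replicates individually reach that level; inactive = mean lysis activity below 80%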
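Assay system: Cryptococcus neoformans yeast cells / Dosing: single-point compound dose / Timing: 4 h at 37 °C static, read 1 h later / Measured by: luminescence of released adenylate kinase using an AK detection reagent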
Yeast UUG start-2 = enhancers of UUG start codon usage in yeast, dose response, S. cerevisiae, UUG firefly luciferase, cherry-pick, set 2; shares compounds with Yeast UUG start-1; luminescence, 4 h; 100% means double the DMSO signal; activation, % at 38 µM; 540 tested, under 10 active; AID 652061, 2013;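 active = signal increase whose fitted curve reaches an absolute level of 40 at a concentration under 10 µM; inactive = activity opposite to the expected increase, or the rest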
The depositor's hits bear a star; i = inactive; . = not tested or not shown.

SMILES	C2C12 statin	Yeast UUG start-1	Rtt109 Vps75	CDK5 p35 inh	Cneo AK release	Yeast UUG start-2
C[C@H](CO)N1C[C@H](C)[C@H](CN(C)Cc2ccncc2)Oc2ncc(-c3cccc(C#N)c3)cc2C1=O	3.2	109.8*	.	.	1.3	i
COc1ccc(-c2cnc3c(c2)C(=O)N([C@@H](C)CO)C[C@@H](C)[C@H](CN(C)Cc2cccnc2)O3)cc1	23.9	144.8*	.	.	47.2	i
COc1ccccc1-c1cnc2c(c1)C(=O)N([C@@H](C)CO)C[C@@H](C)[C@@H](CN(C)Cc1ccncc1)O2	28.9	137.2*	.	.	1.5	i
COCc1cn(CC[C@@H]2CC[C@H](NC(=O)Cc3cccnc3)[C@@H](CO)O2)nn1	-0.9	-8.9	.	.	-1.6	.
Nc1c(-c2ccccc2)nc(Cl)nc1-c1ccccc1	7.6	133.0*	-100.2	-0.9	-0.6	1.3
C[C@H]1CN([C@@H](C)CO)S(=O)(=O)c2ccc(-c3ccc(C(=O)N(C)C)cc3)cc2O[C@H]1CN(C)Cc1ccccc1C(=O)O	21.2	-8.4	.	.	-0.1	.
CC(C)NC(=O)N(C)C[C@H]1OCCCC[C@@H](C)Oc2ccc(NC(=O)c3ccncc3)cc2C(=O)N([C@@H](C)CO)C[C@H]1C	24.1	-11.4	.	.	-6.0	.
COc1ccc(CNC(=O)c2ccc(-n3cncn3)c3ccoc23)cc1OC	0.2	-4.7	.	.	0.7	.
COc1ccc(CNC(=O)c2ccc(-n3ccnc3)c3ccoc23)cc1OC	-1.5	177.4*	.	.	2.9	-3.4
O=C(NCc1cccc(Cl)c1)c1ccc(-n2cncn2)c2ccoc12	-0.5	3.9	.	.	0.3	.
O=C(NCc1cccc(Cl)c1)c1ccc(-n2ccnc2)c2ccoc12	-1.6	125.6*	.	.	6.5	-7.2
O=[N+]([O-])c1c(NCc2ccco2)ccc2nonc12	.	134.0*	.	.	2.9	3.3
Cc1cc(-n2c(C)cc(C(=O)CSc3nc4ccccc4c(=O)n3Cc3ccco3)c2C)no1	10.9	684.7*	4.7	-0.7	1.7	1.3
Cc1cc(-n2c(C)cc(C(=O)CSc3nnnn3-c3ccccc3)c2C)no1	-8.4	-32.4	0.1	1.4	-2.4	.
O=C(CSc1nc2ccccc2c(=O)n1Cc1ccco1)c1ccccc1	26.7	-17.1	2.5	0.2	-0.7	1.7
COCCn1c(SCC(=O)NC(=O)Cc2ccccc2)nc2ccccc2c1=O	6.5	-14.4	2.4	-0.1	-0.3	.
COCCn1c(SCC(=O)c2cc(C)n(C)c2C)nc2ccccc2c1=O	.	.	-3.0	1.0	.	-1.8
CCOC(=O)CSc1nc2ccccc2c(=O)n1Cc1ccco1	5.4	4.3	-4.1	-0.9	-1.2	.
CCC(=O)N(C)C[C@H]1Oc2cc(-c3cncnc3)ccc2S(=O)(=O)N([C@@H](C)CO)C[C@@H]1C	-0.2	-1.3	.	.	-2.6	.
O=C(COC(=O)Cc1ccc2c(c1)OCCO2)Nc1ccc(S(=O)(=O)N2CCCC2)cc1	0.4	-5.2	1.5	1.1	-1.1	0.5
COc1cc(CC(=O)OCC(=O)Nc2ccc(S(=O)(=O)N3CCCC3)cc2)cc(OC)c1OC	6.3	651.6*	-6.1	0.5	1.1	3.1
COc1ccc(CC(=O)Nc2ccc(S(=O)(=O)N3CCCC3)cc2)cc1OC	-1.4	-8.9	-1.6	-1.0	0.2	.
O=C(COC(=O)/C=C/c1ccc2c(c1)OCO2)Nc1ccc(S(=O)(=O)N2CCCC2)cc1	.	.	-3.6	-0.4	.	.
Cc1c(C(=O)NCc2ccc3c(c2)OCO3)cccc1[N+](=O)[O-]	.	.	1.5	-2.8	.	.
COc1c(C)cccc1C(=O)NCc1ccc2c(c1)OCO2	10.8	active	0.0	-0.1	-6.6	-10.2

One compound at a time, from the list above. Order of values: C2C12 statin, Yeast UUG start-1, Rtt109 Vps75, CDK5 p35 inh, Cneo AK release, Yeast UUG start-2
Cc1c(C(=O)NCc2ccc3c(c2)OCO3)cccc1[N+](=O)[O-] across the screens: ., ., 1.5, -2.8, ., .
COc1ccc(CC(=O)Nc2ccc(S(=O)(=O)N3CCCC3)cc2)cc1OC across the screens: -1.4, -8.9, -1.6, -1.0, 0.2, .

Gathered by group: the compounds so far containing a halogen.
SMILES	C2C12 statin	Yeast UUG start-1	Rtt109 Vps75	CDK5 p35 inh	Cneo AK release	Yeast UUG start-2
Nc1c(-c2ccccc2)nc(Cl)nc1-c1ccccc1	7.6	133.0*	-100.2	-0.9	-0.6	1.3
O=C(NCc1cccc(Cl)c1)c1ccc(-n2cncn2)c2ccoc12	-0.5	3.9	.	.	0.3	.
O=C(NCc1cccc(Cl)c1)c1ccc(-n2ccnc2)c2ccoc12	-1.6	125.6*	.	.	6.5	-7.2

(further entries)
SMILES	C2C12 statin	Yeast UUG start-1	Rtt109 Vps75	CDK5 p35 inh	Cneo AK release	Yeast UUG start-2
Cc1cc(Cl)ccc1NC(=S)NCCC(c1ccccc1)c1ccccc1	.	112.0*	3.6	-2.5	0.1	6.8
Cc1c(Cl)cccc1NC(=S)NCCC(c1ccccc1)c1ccccc1	.	-6.7	-6.2	-1.5	22.0	.
CCc1ccc(/C=N/NC(=O)c2cc(C3CC3)nc3ccccc23)s1	-94.3	307.4*	-0.4	0.3	-8.5	-4.4
CCc1ccccc1Nc1nc2ccccc2[nH]1	.	-0.3	.	.	20.7	.
COc1ccccc1Nc1nc2ccccc2[nH]1	-10.9	-20.5	2.3	0.9	-4.8	-2.4
C[C@@H]1CCCCO[C@H](CN(C)C(=O)c2ccncc2)[C@H](C)CN([C@@H](C)CO)C(=O)c2cc(NC(=O)C3CCCCC3)ccc2O1	-7.9	-2.0	.	.	-1.7	.
CC(=O)N(C)C[C@@H]1Oc2cc(Br)ccc2S(=O)(=O)N([C@@H](C)CO)C[C@@H]1C	-5.1	63.2*	.	.	49.3	i
C[C@H]1CN([C@@H](C)CO)S(=O)(=O)c2ccc(-c3cccc(C(=O)N(C)C)c3)cc2O[C@H]1CN(C)C(=O)Nc1ccc(F)cc1	-7.5	-0.3	.	.	-4.0	.
C[C@H](CO)N1C[C@H](C)[C@H](CN(C)C(=O)CN(C)C)Oc2cc(-c3ccccc3)ccc2S1(=O)=O	2.2	34.7*	.	.	-14.6	i
CC(=O)N(C)C[C@@H]1Oc2cc(-c3cccc(C#N)c3)ccc2S(=O)(=O)N([C@H](C)CO)C[C@H]1C	4.7	66.3*	.	.	-0.1	i
CC(=O)N(C)C[C@@H]1Oc2cc(-c3cccc(C#N)c3)ccc2S(=O)(=O)N([C@@H](C)CO)C[C@H]1C	7.4	13.2	.	.	1.8	.
C[C@H]1CN([C@@H](C)CO)S(=O)(=O)c2ccc(-c3cccc(C(=O)N(C)C)c3)cc2O[C@@H]1CN(C)C(=O)Nc1ccc(F)cc1	-26.7	111.2*	.	.	18.9	i
COc1cccc(-c2ccc3c(c2)O[C@H](CN(C)Cc2cncnc2)[C@@H](C)CN([C@@H](C)CO)S3(=O)=O)c1	-8.9	-7.2	.	.	0.4	.
COc1cccc(-c2ccc3c(c2)O[C@@H](CN(C)Cc2ccncc2)[C@@H](C)CN([C@H](C)CO)S3(=O)=O)c1	-7.8	165.8*	.	.	-2.8	i
Cc1cc(OCCCCNC(C)C)cc(C(C)C)c1	4.0	228.6*	7.1	0.0	-2.8	7.9
Cc1cc(OCCOCCNC(C)C)cc(C)c1Cl	-11.0	-16.4	-0.3	-1.4	5.0	.
C[C@H](CO)N1C[C@H](C)[C@H](CN(C)C(=O)C2CC2)Oc2cc(Br)ccc2S1(=O)=O	-8.0	10.9	.	.	-1.8	.
O=C(Cc1cccc2ccccc12)NCC(=O)N1CCN(Cc2cccc(C(F)(F)F)c2)CC1	-0.3	116.4*	-1.7	-4.8	-0.9	11.7
CC(C)c1ccc(CCNC(=O)c2ccc([N+](=O)[O-])cc2)cc1	-32.3	405.9*	.	-0.6	-1.3	1.3
